Results published in patent US12195429B2, “Cannabinoid derivatives” (CANOPY GROWTH CORPORATION, priority 2019, dated 2025).
Read-outs that look alike come from different tables or passages of the source.

Amino acid sequences for entries named in this document (tags omitted).
UniProt P21554, whole entry: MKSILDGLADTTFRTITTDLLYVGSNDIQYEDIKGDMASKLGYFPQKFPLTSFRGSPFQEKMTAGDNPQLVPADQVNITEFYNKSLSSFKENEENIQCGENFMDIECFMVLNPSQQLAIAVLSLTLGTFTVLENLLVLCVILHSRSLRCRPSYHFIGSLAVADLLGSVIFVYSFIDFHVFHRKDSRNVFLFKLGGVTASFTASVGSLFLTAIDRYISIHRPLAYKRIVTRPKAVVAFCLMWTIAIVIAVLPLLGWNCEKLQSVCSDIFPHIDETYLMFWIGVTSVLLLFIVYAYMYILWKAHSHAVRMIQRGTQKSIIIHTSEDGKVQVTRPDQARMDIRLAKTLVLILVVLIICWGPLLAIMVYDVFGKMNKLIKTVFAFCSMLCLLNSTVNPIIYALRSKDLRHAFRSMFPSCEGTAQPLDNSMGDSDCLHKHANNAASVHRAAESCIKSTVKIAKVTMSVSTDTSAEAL
UniProt P34972, whole entry: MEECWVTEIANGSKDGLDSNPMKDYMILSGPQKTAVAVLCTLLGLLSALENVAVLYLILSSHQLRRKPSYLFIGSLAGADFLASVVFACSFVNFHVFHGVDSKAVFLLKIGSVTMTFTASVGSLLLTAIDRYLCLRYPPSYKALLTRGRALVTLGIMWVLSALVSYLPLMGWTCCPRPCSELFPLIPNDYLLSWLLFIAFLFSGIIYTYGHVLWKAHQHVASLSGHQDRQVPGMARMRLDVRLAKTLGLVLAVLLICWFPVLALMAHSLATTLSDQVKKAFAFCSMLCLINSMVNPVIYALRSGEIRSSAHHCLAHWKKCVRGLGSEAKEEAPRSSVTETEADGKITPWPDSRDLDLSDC

Experiments:
human CB1 receptor [1] = target: T1, human CB1 receptor (Homo sapiens, UniProt P21554); test: PathHunter β-arrestin functional assay, CB1 receptor, agonist mode; type: cell-based
T1 construct: host or cells: CHO-K1

human CB2 receptor = target: T2, human CB2 receptor (Homo sapiens, UniProt P34972); test: CB2 radioligand competitive binding assay ([3H]CP 55,940 displacement)
T2 construct: host or cells: CHO-K1

human CB1 receptor [2] = target: T1, human CB1 receptor; test: CB1 radioligand competitive binding assay ([3H]CP 55,940 displacement)

Compound	activity towards the human CB1 receptor, agonist mode (human CB1 receptor [1])	Selectivity CB2 (human CB2 receptor)	Selectivity CB1 (human CB1 receptor [2])	Selectivity CB2 (human CB2 receptor; fold difference in binding affinity, CB2 over CB1, 1.00 = about the same affinity for both receptors)
CCCCCc1cc(O)c(C2C=C(C)CCC2)c(O)c1-c1ccsc1 (stereo not drawn) [Compound 17c, 5′-methyl-4-pentyl-3-(thiophen-3-yl)-1′,2′,3′,4′-tetrahydro-[1,1′-biphenyl]-2,6-diol]	minimal to no activity	1.18 fold		
CCCCCc1cc(O)c(C2C=C(C)CCC2)c(O)c1-c1cncnc1 (stereo not drawn) [Compound 13c, 5′-methyl-4-pentyl-3-(pyrimidin-5-yl)-1′,2′,3′,4′-tetrahydro-[1,1′-biphenyl]-2,6-diol]			1.00 fold	1.00 fold
CCCCCc1cc(O)c(C2C=C(C)CCC2)c(O)c1-c1nnn[nH]1 (stereo not drawn) [Compound 3c, 5′-methyl-4-pentyl-3-(1H-tetrazol-5-yl)-1′,2′,3′,4′-tetrahydro-[1,1′-biphenyl]-2,6-diol]	minimal to no activity	1.00 fold	1.00 fold	
CCCCCc1cc(O)c(C2C=C(C)CCC2)c(O)c1-c1ccco1 (stereo not drawn) [Compound 15c, 3-(furan-2-yl)-5′-methyl-4-pentyl-1′,2′,3′,4′-tetrahydro-[1,1′-biphenyl]-2,6-diol]	minimal to no activity	1.82 fold		
